{"source": "patent US4902799A", "about": "“Bicyclic alkoxy- and alkylthio-substituted aminoalcohols” (Maggioni-Winthrop S.p.A., priority 1985, dated 1990)", "test_system": "toxic adrenaline doses", "experiment": "Protection against toxic adrenaline doses", "type": "in vivo, mouse (male mice CrI:CD 1(CR) BR)", "details": "14.5 mg/kg l-adrenaline i.p. 2 hrs after oral treatment, mortality at 24 hrs", "data": [{"substance": "Tibalosine", "values": [{"measurement": "PD50 (50% protective dose)", "result": 5.5, "unit": "mg/kg/p.o."}]}]}
